Data published in patent publication US20070066632A1, “Fused bicyclic inhibitors of TGFbeta” (Scios, Inc., priority 2005, published 2007).

By UniProt entry, the sequences of proteins in these tests, tags left out. Residues count along the entry.
UniProt P36897, 34-503 limits assumed: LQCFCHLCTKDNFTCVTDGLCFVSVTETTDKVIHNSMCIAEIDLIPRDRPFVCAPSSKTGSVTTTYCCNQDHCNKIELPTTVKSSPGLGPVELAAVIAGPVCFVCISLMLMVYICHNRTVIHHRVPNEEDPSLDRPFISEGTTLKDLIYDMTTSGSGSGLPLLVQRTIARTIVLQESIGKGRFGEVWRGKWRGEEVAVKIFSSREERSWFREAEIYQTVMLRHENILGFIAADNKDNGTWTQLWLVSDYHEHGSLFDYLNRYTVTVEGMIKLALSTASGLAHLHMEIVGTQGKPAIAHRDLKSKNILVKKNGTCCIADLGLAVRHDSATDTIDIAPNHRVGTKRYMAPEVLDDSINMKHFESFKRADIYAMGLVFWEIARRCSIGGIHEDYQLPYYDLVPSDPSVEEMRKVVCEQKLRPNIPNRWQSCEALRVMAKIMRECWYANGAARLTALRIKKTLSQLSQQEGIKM

Target: TGFβ R1 (Homo sapiens, UniProt P36897)
Experiment: TGFβ R1 autophosphorylation protocol
Settings: read-out: IC50 for Kinase Inhibition; 10 uM ATP, 170 nM TGFβ R1, 20 minutes at room temperature
Method: The compounds of the invention were tested for their ability to inhibit TGFβ by a TGFβ R^1 autophosphorylation protocol. This was conducted as follows: Compound dilutions and reagents were prepared fresh daily. Compounds were diluted from DMSO stock solutions to 2 times the desired assay concentration, keeping final DMSO concentration in the assay less than or equal to 1%. TGFβ R1 was diluted to 4 times the desired assay concentration in buffer+DTT. ATP was diluted into 4× reaction buffer, and gamma-^33P-ATP was added at 60 uCi/mL.
The assay was performed by adding 10 ul of the enzyme to 20 ul of the compound solution. The reaction was initiated by the addition of 10 ul of ATP mix. Final assay conditions included 10 uM ATP, 170 nM TGFβ R1, and […] in 20 mM MOPS, pH7. The reactions were incubated at room temperature for 20 minutes. The reactions were stopped by transferring 23 ul of reaction mixture onto a phosphocellulose 96-well filter plate, which had been pre-wetted with 15 ul of 0.25M H3PO4 per well. After 5 minutes, the wells were washed 4× with 75 mM H3PO4 and once with 95% ethanol. The plate was dried, scintillation cocktail was added to each well, and the wells were counted in a Packard TopCount microplate scintillation counter.

IC50: 3.46 µM
SMILES: COc1ccc(CNc2ccc3c(Nc4ccncc4C(=O)NCCCN)nc(-c4cc(Cl)ccc4F)nc3n2)cc1
